Source: publication PMC11258689, “A Snake Venom Peptide and Its Derivatives Prevent Aβ42 Aggregation and Eliminate Toxic Aβ42 Aggregates In Vitro” (ACS Chemical Neuroscience, 2024)

By UniProt entry, the sequences of proteins in these tests, tags left out. Residues count along the entry.
UniProt P05067, 672-713 limits assumed: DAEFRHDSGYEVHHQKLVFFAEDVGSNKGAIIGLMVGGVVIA

What was measured:
[1] = system: Aβ42 aggregates; assay: sFIDA assay of Aβ42 aggregate elimination; assay type: biochemical; details: 50 nM peptide, 1 nM Aβ42 aggregates, overnight, room temperature, PBS; TIRFM pixel count; n = 3
Experimental: To determine the influence of peptides on Aβ42 aggregates, an sFIDA assay was performed. The principle was previously described.[29] Therefore, we used pretreated 384 glass bottom microtiterplates (Sensoplate plus, Greiner Bio-One GmbH, Frickenhausen, Germany) to immobilize the capture-antibody Nab228 (Sigma-Aldrich, St. Louis, Missouri, USA) in a concentration of 2.5 μg/mL in 0.1 M carbonate buffer (Carl Roth, Karlsruhe, Germany). After an overnight incubation at 4 °C, the plate was washed five times with TBS and blocked with 80 μL of a 0.5% BSA solution in TBS with 0.03% ProClin 300 (Sigma-Aldrich, St. Louis, Mo, USA) for 1.5 h at room temperature.
The influence of 50 nM CDPs on 1 nM Aβ42 aggregates (prepared according to Ref ([70])) in PBS was determined by incubating them overnight at room temperature and 600 rpm. As a control, the same Aβ42 aggregates concentration was incubated without additions of peptides; instead, the buffer was added to contain the same end concentrations. […]
By using a total internal reflection microscopy (TIRFM) (Leica Camera AG, Wetzlar, Germany), measurement (excitation: 635 nm, emission filter: 705/22 nm) was carried out with an oil immersion objective in 100× magnifications as previously described by Kass et al. 2022, and for each well, 25 of 14-bit grayscale images were measured with a size of 1000 × 1000 pixel each. […]

[2] = target: T1, Aβ42 (Homo sapiens, UniProt P05067); assay: Thioflavin T (ThT) assay of Aβ42 aggregation; assay type: biochemical; details: 28 μM peptide, 10 μM Aβ42, 5 μM ThT, 24 h, room temperature; mean of n = 3
T1 construct: purchased Bachem, Bubendorf, Switzerland
Experimental: To evaluate the ability of the peptides to prevent Aβ42 aggregation, a ThT assay was performed. Aβ42 (10 μM), ThT (5 μM), and the peptides (28 μM) were incubated in 96-well plates for 24 h at room temperature in a plate reader (Clariostar, BMG Labtech, Ortenberg, Germany). During this time, the ThT fluorescence was measured every 6 minutes with an excitation of 440 nm and emission of 490 nm. The data were corrected considering the blank wells (without Aβ42 and the peptides). None of the peptides interact with ThT alone or has autofluorescence properties. All measurements were performed in triplicate (n = 3), and data are presented as mean ± SM.
Different concentrations were titrated to investigate CDP-1 and -2 dose dependency on the Aβ42 aggregate formation, and a ThT assay was performed as described before. The effect of 0, 0.5, 1, 3, 6, 13, and 28 μM peptides was tested against 10 μM Aβ42 over 24 h. All experiments were performed in triplicate (n = 3), and data are presented as mean ± SM.

[3] = system: Aβ42 oligomers; assay: QIAD assay (Aβ42 aggregate size distribution, oligomer elimination); assay type: biochemical; details: 20 μM peptide added to 80 μM Aβ42 (pre-incubated 2 h), 30 min; density gradient, RP-HPLC UV 214 nm; n = 3
Experimental: In order to evaluate the efficacy of the peptides in eliminating Aβ42 oligomers, QIAD assays were performed.[39] Briefly, lyophilized Aβ42 (80 μM) was incubated for 2 h in sodium phosphate buffer for Aβ42 oligomerization. Then, each peptide (20 μM) was added to the Aβ42 solution and incubated for 30 min. Finally, samples were added on top of an iodixanol density gradient (5–50% (w/v) (OptiPrep, Sigma-Aldrich, Darmstadt, Germany) and centrifuged for 3 h at 4 °C and 259,000 x g (Optima TL-100, Beckman Coulter, Brea, CA, USA). For the sample analysis, 14 fractions (140 μL each) were collected from top to bottom. The top fractions, named fractions 1–2, contained Aβ42-monomers; fractions 4–6 contained the Aβ42-oligomers, which are of special interest; and the bottom fractions 11–14 contained high molecular weight of aggregated Aβ42. Each density gradient fraction was analyzed by Reversed Phase Liquid Chromatography. For this an Agilent 1260 Infinity II (Santa Clara, California, USA) system was equipped with an Agilent Zorbax SB-300 C-8 5 μm, 4.6 × 250 mm Column (Santa Clara, California, USA) and a multi-wavelength detector set to acquire the UV absorbance at 214 nm. H2O + 0.1% trifluoroacetic acid (AppliChem, Darmstadt, Germany) and acetonitrile (Roth, Karlsruhe, Germany) + 0.1% trifluoroacetic acid were used as eluent A and B, respectively. The acquisition method consisted of an initial isocratic step at 15% B, followed by a gradient from 15% B to 45% B in 10 min and another isocratic step at 45% B. The column temperature was set to 80 °C for the entire analysis. This method ensured full separation of the iodixanol density gradient medium and Aβ42 in all fractions. Aβ42 peaks were analyzed and integrated by the Agilent OpenLab 2.5 software. All measurements were performed in triplicate (n = 3), and data are presented as mean ± SM.

[4] = system: SH-SY5Y cells; assay: MTT cell viability assay, SH-SY5Y; assay type: cell-based, human; details: 20 and 40 μM peptide, overnight, n = 3
Experimental: (§1) The cell viability assay was performed using the reduction of [3-(4,5-dimethylthiazol-2-yl)-2,5-diphenyl tetrazolium bromide-MTT] (Merck, Darmstadt, Germany) to investigate the cytotoxicity of the CDPs against SH-SY5Y (human neuroblastoma) and HEK293 (human embryonic kidney) cells. Both cell lines were purchased from the Leibniz Institute DSMZ-German collection of microorganisms and cell cultures GmbH. HEK293 cells were cultivated in Dulbecco’s modified Eagle’s medium high glucose (Merck, Darmstadt, Germany) containing 2% antibiotic solution of 10 000 units Penicillin, 10 mg streptomycin/ml (Merck, Darmstadt, Germany), and 10% fetal bovine serum (Merck, Darmstadt, Germany) at 37 °C with 5% CO2. […]
(§2) According to the manufacturer’s instructions, cell viability was measured using the Cell Proliferation Kit I (Roche, Basel, Switzerland). The absorbance of the formazan product was determined by measuring the absorption at 570 nm and subtracted from the absorbance at 660 nm.
(§3) The SH-SY5Y cells with a density of 10 000 cells (for HEK293 5000 cells) per well (total volume of 100 μL) were added to each well of a 96-well tissue culture plate (VWR North American) and incubated overnight at 37 °C with 5% CO2. […] Finally, the absorbance was measured at 570 and 660 nm using a CLARIO star plate reader (BMG labtech, Ortenberg, Germany), and the cell viability was calculated using eq 2: [drawing 2] […]

[5] = system: HEK293 cells; assay: MTT cell viability assay, HEK293; assay type: cell-based, human; details: 20 and 40 μM peptide, overnight, n = 3
Experimental: as §1, §2, §3

Structure (SMILES) | sFIDA signal reduction compared with the control [1] | ThT signal / Aβ42 aggregation compared to Aβ42 alone [2] | Aβ42 in QIAD fraction 6 (oligomers) [3] | Aβ42 in QIAD fractions 4–5 (oligomers) [3] | cytotoxicity in SH-SY5Y cells [4] | cytotoxicity in HEK293 cells [5]
COC(=O)[C@H](CCCCN)NC(=O)[C@H](CCCCN)NC(=O)[C@H](CO)NC(=O)[C@H](CS)NC(=O)[C@H](CCCCN)NC(=O)[C@H](Cc1c[nH]c2ccccc12)NC(=O)[C@H](CCCNC(=N)N)NC(=O)[C@H](Cc1c[nH]c2ccccc12)NC(=O)[C@H](CCCNC(=N)N)NC(=O)[C@H](CO)NC(=O)[C@H](CC(=O)O)NC(=O)[C@H](CCSC)NC(=O)[C@H](CCCCN)NC(C)=O [CDP-6] | 91.2% | four times smaller | detectable | not detected | – | –
COC(=O)[C@H](CCCCN)NC(=O)[C@H](CCCCN)NC(=O)[C@H](CO)NC(=O)[C@H](CS)NC(=O)[C@H](CCCCN)NC(=O)[C@H](Cc1c[nH]c2ccccc12)NC(=O)[C@H](CCCNC(=N)N)NC(=O)[C@H](Cc1c[nH]c2ccccc12)NC(=O)[C@H](CCCNC(=N)N)NC(=O)[C@H](CS)NC(=O)[C@H](CC(=O)O)NC(=O)[C@H](CCSC)NC(=O)[C@H](CCCCN)NC(C)=O [CDP-8] | 77.2% | four times smaller | – | not detected | nontoxic | nontoxic
